Molecular target: HLA-A0201 (Homo sapiens, UniProt P04439, D140Y/D185E/D98H/E176V/E277Q/G131W/G231S/I119V/I121R/I166T/I218V/L300P/L318F/N151K/N90K/P208A/P217A/Q86G/Q94H/R138H/R169H/T345S)
Assay type: binding
Note: test concentration or dose not given here.

## [3-PYRA]ILGFVFTL
  % inhibition at T=4H and T=24H FP 4H: 87%
  % inhibition at T=4H and T=24H FP 24H: 85%
